Patent publication US20160199369A1, “Extruded Immediate Release Abuse Deterrent Pill” (priority 2013, published 2016)

What was measured:
[1] = General solubility of exemplary components; format: physicochemical; conditions: 200 proof ethanol, filtered through 0.22 micrometer PTFE filter
Excerpt: The following table lists the relative solubility of exemplary components of a formulation. A number of different dyes are listed along with their solubility information taken from the various literature sources and tested experimentally (200 proof ethanol and filtered through a 0.22 micrometer PTFE filter).

[2] = relative solubility, yes/no; cited from earlier work

O=S(=O)([O-])c1ccc(N=Nc2c(O)ccc3cc(S(=O)(=O)[O-])ccc23)cc1.[Na+].[Na+] [FD&C Yellow #6]
Yes: Alcohol Solubility (tested) [1] | Alcohol Solubility (Literature) [2] | Water Solubility [2]
